{"source": "ChEMBL document CHEMBL1833821", "about": "“Defining the structural parameters that confer anticonvulsant activity by the site-by-site modification of (R)-N'-benzyl 2-amino-3-methylbutanamide” (J Med Chem, 2011)", "species_on_record": "Rattus norvegicus", "assay": "Protective index, ratio of TD50 for albino Sprague-Dawley rat to ED50 for albino Sprague-Dawley rat by maximal electroshock seizures test", "type": "functional", "method_in_brief": "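Rat protective index calculated as behavioral toxicity TD50 divided by MES ED50, both after oral dosing of male Sprague-Dawley rats at the NINDS ASP.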"}
{"smiles": "O=C1NC(=O)C(c2ccccc2)(c2ccccc2)N1", "note": "[PHENYTOIN]", "values": [{"measurement": "PI", "value": ">120"}]}
